Consider 1 compound from article PMC10809502, “Application of a new MDCKII-MDR1 cell model to measure the extent of drug distribution in vitro at equilibrium for prediction of in vivo unbound brain-to-plasma drug distribution” (Fluids and Barriers of the CNS, 2024).

By UniProt entry, the sequences of proteins in these tests, tags left out. Residues count along the entry.
UniProt P02769, 25-607: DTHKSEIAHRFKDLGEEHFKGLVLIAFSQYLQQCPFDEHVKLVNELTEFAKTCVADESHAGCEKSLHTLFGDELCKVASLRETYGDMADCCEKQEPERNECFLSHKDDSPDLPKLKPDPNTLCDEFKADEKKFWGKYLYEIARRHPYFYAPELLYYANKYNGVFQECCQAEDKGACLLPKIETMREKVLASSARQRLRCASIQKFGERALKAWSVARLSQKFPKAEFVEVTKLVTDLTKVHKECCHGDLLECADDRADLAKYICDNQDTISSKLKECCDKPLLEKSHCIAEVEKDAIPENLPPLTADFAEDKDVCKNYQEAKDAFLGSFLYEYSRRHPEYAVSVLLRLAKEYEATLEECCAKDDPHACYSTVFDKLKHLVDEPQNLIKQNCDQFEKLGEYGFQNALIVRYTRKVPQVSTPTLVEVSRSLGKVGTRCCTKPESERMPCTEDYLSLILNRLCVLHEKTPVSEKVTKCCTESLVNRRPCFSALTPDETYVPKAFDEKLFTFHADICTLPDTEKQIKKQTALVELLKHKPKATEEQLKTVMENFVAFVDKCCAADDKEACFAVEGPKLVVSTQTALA

Data set [1] concerns P-gp (human MDR1). Briefly: in vitro. The note with it: dog, MDCK-MDR1, pH 7.4.
Data set [2] deals with Bovine Serum Albumin (BSA) (Bos taurus, UniProt P02769). Kind of data set: Fraction unbound in 35 μM BSA, equilibrium dialysis. In general terms: Equilibrium dialysis compares concentrations on both sides of a semipermeable membrane.
For data set [3] the following is noted: cited from earlier work.
Data set [4] relates to P-gp (human MDR1). Briefly: Equilibrium distribution study (in vitro Kp,brain / Kp,uu,brain) across MDCKII-MDR1 cells, BSA apical, brain homogenate basolateral, Uni-L and Bi-L. The note with it: dog, % printed.
Another data set concerns MDCKII-MDR1 cells. The data set is described as above. The note with it: 29 h, 1 μM, brain homogenate/BSA ratio.

As usually defined, the Papp B→A is the apparent permeability from the basolateral to the apical side of a cell layer. By fraction unbound is commonly meant free concentration divided by total concentration. A higher fraction unbound goes with much free substance. As for `Cc1nc2n(c(=O)c1CCN1CCC(c3noc4cc(F)ccc34)CC1)CCCC2` [Risperidone, risperidone], in the data set with P-gp (human MDR1) [1], the apparent permeability from basolateral to apical (Papp B→A) at 60 min, 0.5 μM came to 37 ± 4 ×10⁻⁶ cm/s. The free fraction (fraction unbound) at 5 h, 1 μM in data set [2] (bovine, 35 μM BSA) amounted to 0.918 ± 0.016. For the same compound, in data set [2] (calculated with Eq. 2 from fu measured in 100% matrices (ref 20), dilution factor 20), the “Predicted fu (%) BSA 35 μM (D = 20)” value is given as 89.4%. The “classification of brain penetration in vivo” value in data set [3] (Göttingen minipig Kp,uu,brain) is “restricted (restricted brain penetration with Kp,uu,brain < 0.3)”. For the same compound, the “Kp,uu,brain in vivo” value in data set [3] (Göttingen minipig) is listed as 0.19. The recovery at 29 h, 1 μM in the data set with P-gp (human MDR1) [4] (pH 7.5, Recovery Bi-L, mass balance Eq. 7, Bi-L) was 62%; in the data set with P-gp (human MDR1) [4] (pH 7.5, Recovery Uni-L, mass balance Eq. 6, Uni-L), 75%. The “in vitro determined Kp,brain Bi-L” value with MDCKII-MDR1 cells (Bi-L (compound loaded both sides)) is 0.79. Further, the “in vitro determined Kp,brain Uni-L” value in the data set on MDCKII-MDR1 cells (Uni-L (compound loaded apically in BSA)) is 0.86.
